Columns and labels:
[1] = target: T1, A3 adenosine receptors (Homo sapiens, UniProt P0DMS8); assay: [3H]MRE 3008F20 saturation binding to membranes of peripheral blood lymphocytes and neutrophils; parameters: endogenous in cells; host or cells: neutrophils and lymphocytes from peripheral venous blood of colorectal cancer patients and healthy volunteers; conditions: N=3
Experimental: (§1) Non-specific binding was determined in the presence of 1 μM MRE 3008F20. Bound and free radioactivity were separated, after an incubation time of 120 min at 4° C., by filtering the assay mixture using a Brandel cell harvester. The protein concentration was determined according to a Bio Rad method (26). Binding to A1 and A2A adenosine receptors was performed using [^3H]1,3-dipropyl-8-cyclopentyl-xanthine ([^3H]DPCPX) and [^3H]4-(2-[7-amino-2-(2-furyl)-[1,2,4]triazolo-[2,32][1,3,6]triazinyl-amino]ethyl)-phenol ([^3H]ZM 241385), respectively, as previously described (16, 24).
(§2) Data and statistical analysis. A weighted nonlinear least squares curve fitting program, LIGAND was used for computer analysis of the data from saturation experiments (28). Significant differences between control and patients with colorectal cancer were assessed using Student's t-test or analysis of variance (ANOVA) and the Dunnett's test when required. P<0.05 was considered significant. All data are reported as means±SEM.

Protein sequences, listed by entry. Tags and fused reporters are not part of them.
UniProt P0DMS8, whole entry: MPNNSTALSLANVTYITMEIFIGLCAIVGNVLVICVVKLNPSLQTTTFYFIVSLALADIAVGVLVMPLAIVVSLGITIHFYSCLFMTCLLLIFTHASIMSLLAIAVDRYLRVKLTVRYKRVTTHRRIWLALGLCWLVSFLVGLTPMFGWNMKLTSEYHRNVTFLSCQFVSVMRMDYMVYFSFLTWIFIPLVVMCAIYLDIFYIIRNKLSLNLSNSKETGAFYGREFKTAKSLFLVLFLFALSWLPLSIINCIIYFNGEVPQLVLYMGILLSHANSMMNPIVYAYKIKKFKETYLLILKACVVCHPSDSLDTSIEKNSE

[2] = target: T1, A3 adenosine receptors; assay: [3H]MRE 3008F20 saturation binding to colonic membranes; parameters: Colon cancer tissues and related mucosa were homogenized in PBS buffer with a Polytron (Kinematica) and centrifuged; from tissue; host or cells: surgical specimens of human colorectal carcinoma, adenoma and adjacent/remote normal colonic mucosa
Experimental: PREPARATION OF COLONIC MEMBRANE SUSPENSIONS. Colon cancer tissues and related mucosa were homogenized in PBS buffer with a Polytron (Kinematica) and centrifuged for 15 min at 48,000 g. The membrane pellet was resuspended in 50 mM Tris/HCl buffer pH 7.4 (50 mM Tris/HCl, 10 mM MgCl2, 1 mM EDTA) and incubated with 3 IU/ml of adenosine deaminase for 30 min at 37° C. This suspension was used for binding experiments.
as §1, §2

Kd ([1]; lymphocytes of patients with small adenomas): 2.46 ± 0.52 nM
Kd ([1]; neutrophils of patients with small adenomas): 2.67 ± 0.29 nM
Kd ([2]; adjacent normal (AN) mucosa, 2 cm from tumor): 4.56 ± 0.21 nM
Kd ([2]; colonic membranes from 14 patients operated for non-neoplastic large bowel disease): 2.93 ± 0.19 nM
Kd ([2]; large adenomas with high-grade dysplasia, N=4): 6.3 ± 0.8 nM
Kd ([2]; remote normal (RN) mucosa, 10 cm from tumor): 3.01 ± 0.13 nM
Kd ([2]; small adenomas with low-grade dysplasia, N=4): 2.99 ± 0.5 nM
Kd ([2]; tumor tissues, 73 primary colorectal carcinomas, mean±SEM): 8.73 ± 0.37 nM
Structure (SMILES): CCCn1cc2c(nc(NC(=O)Nc3ccc(OC)cc3)n3nc(-c4ccco4)nc23)n1 [[^3H]MRE 3008F20, 5-N-(4-methoxyphenyl-carbamoyl)amino-8-propyl-2(2furyl)-pyrazolo-[4,3 e]-1,2,4-triazolo [1,5-c]pyrimidine]
